According to PubChem BioAssay AID799 (SRMLSC, 2007):
The entries are a selection whose mix differs from that of the whole data set. Active and inactive are the calls of the source.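 Rule for the calls: active = viability gain under doxorubicin at or above a set limit, the compound median plus 3 SD (cut at about 4.7% in these data); inactive = the rest.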

Assay: H69AR viability gain despite doxorubicin, primary screen, MRP-1 activator project, H69AR cells, CellTiter-Glo (AID 799);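 note: MRP-1 overexpressing cells given doxorubicin 25 µM after compound pretreatment; 18-22 h compound pretreatment then 72 h with doxorubicin before readout; 0% = doxorubicin-only wells and 100% = vehicle-treated cells without doxorubicin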
Settings: viability rescue, at 10 µM, stronger effect = higher value

| Compound | viability increase |
| --- | --- |
| O=C(NCC1(N2CCOCC2)CCCCC1)c1cc(=O)[nH]c2ccccc12 | inactive: -2.13% |
| CN1CCN(CCOC(=O)C(O)(c2ccccc2)c2ccccc2)CC1 | inactive: -1.18% |
| N#CC1(Nc2ccccc2)CCN(CCc2ccccc2)CC1 | inactive: -3.45% |
| COc1ccc(NC2CCN(CCc3ccccc3)CC2)c(OC)c1 | inactive: -2.75% |
| O=C(NCC1(N2CCOCC2)CCCCC1)c1cc2ccccc2o1 | inactive: -2.63% |
| O=C(OC1CN2CCC1CC2)C1c2ccccc2Oc2ccccc21 (stereo not drawn) | inactive: -3.23% |
| CCC(CO)(C(=O)OC1CN2CCC1CC2)c1ccccc1 (stereo not drawn) | inactive: -0.79% |
| CCOc1ncccc1C(=O)NCC1(N2CCOCC2)CCCCC1 | inactive: -1.33% |
| CCN1CCC(Nc2cccc(F)c2)CC1 | inactive: -0.32% |
| Fc1ccccc1NC1CCN(Cc2ccccc2)CC1 | inactive: -2.4% |
| c1ccc(CN2CCC(Nc3ccccc3)CC2)cc1 | inactive: -1.26% |
| N/C(=N\O)c1c(N)no[n+]1[O-] | inactive: -1.31% |
| O=C(OC1CN2CCC1CC2)C1c2ccccc2C=Cc2ccccc21 (stereo not drawn) | inactive: -3.03% |
